The numbers were not newly measured in patent US20070248702A1, “Use of CB2 receptors agonists for the treatment of Huntington's disease” (priority 2004, published 2007), which cites them from elsewhere.

Amino acid sequences for entries named in this document (tags omitted).
UniProt P34972, whole entry: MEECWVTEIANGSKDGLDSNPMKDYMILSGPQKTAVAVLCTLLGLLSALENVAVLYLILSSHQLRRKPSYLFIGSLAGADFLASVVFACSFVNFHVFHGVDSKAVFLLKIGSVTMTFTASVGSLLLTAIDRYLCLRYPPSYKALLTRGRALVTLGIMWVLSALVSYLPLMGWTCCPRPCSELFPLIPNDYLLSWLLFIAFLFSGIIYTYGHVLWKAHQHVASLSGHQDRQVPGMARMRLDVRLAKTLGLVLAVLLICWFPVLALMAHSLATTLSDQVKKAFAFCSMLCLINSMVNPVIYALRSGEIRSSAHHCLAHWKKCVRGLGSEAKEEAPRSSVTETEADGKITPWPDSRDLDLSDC

pIC50: −log10 of the molar value.

In the series the target is human CB2 receptors (Homo sapiens, UniProt P34972). The note with it: read-out: IC50 human CB2 receptors; as disclosed in WO 03/064359; cited from earlier work.

For `CCCCCCC(C)(C)c1cc(OC)c(C2C=C(CO)C3CC2C3(C)C)c(OC)c1` (single isomer, unassigned; (+)) [HU-308, (+){4-[4-(1,1-dimethylheptyl)-2,6-dimethoxyphenyl]-6,6-dimethyl-bicyclo[3.1.1]hept-2-en-2-yl}-methanol], the pIC50 was 7.88.

By pIC50 is commonly meant the IC50 on a negative log10 scale, so that one unit is a factor of ten.
